Data from patent US20070088414A1, “Particulate formulations for intradermal delivery of biologically active agents” (priority 2005, published 2007).

Test: Payload determination, high molecular weight substance (Herceptin), polyacrylamide gel electrophoresis
Assay type: physicochemical
Procedure: To determine the phospholipid concentration of liposomes, 10 μl of each liposome solution was placed in a 16×100 mm glass tube along with 0.4 ml of 10 N sulfuric acid. A set of phosphate standards was prepared from a 0.645 mM stock (Sigma P3869) which was also assayed in glass tubes alongside the liposome samples. Samples, standards and blank tubes were run in duplicate. All tubes were placed in a heating block and digested for 30 minutes at 180° C. Tubes were then removed from the heating block and cooled for 5 minutes before adding 100 μl of 9% hydrogen peroxide. All tubes were then again heated for 30 minutes at 180° C. […] All standards, samples and blanks were read at 820 nm on a spectrophotometer. Using the known standard values, a curve was generated from which phosphate concentration values can be calculated for each of the liposome samples. Phosphate concentration values are expressed as μmoles Pi/mL. […]
Herceptin monoclonal antibody was used for the determination of payload capacity for a high molecular weight substance. Approximate amount of monoclonal antibody encapsulated in liposomes was determined by polyacrylamide gel electrophoresis. A liposome sample of known phosphate concentration was loaded on a gel alongside the reference lanes of known quantities of monoclonal antibody. […]

Herceptin: recombinant DNA-derived humanized monoclonal antibody that binds HER2
therapeutic agent portion of particle on a per weight basis (Herceptin liposomes): about 0.07%
payload for herceptin antibody (antibody encapsulated in liposomes, approximated from gel band intensities): about 0.024 nmoles per 50 nmoles of phosphate
